Assay results reported in patent EP0179751B1, “Ionophore polyether, process for its preparation and its use” (SANOFI, priority 1984, dated 1986).

Test system: flore ruménale
Test: in vitro rumen flora fermentation, nitrogen use
Conditions: for fermentescibilité des sources protéiques: graine de lupin doux, tourteau d'arachide, tourteau de soya

| Compound | effets sur l'activité microbienne ou sur la production de gaz à partir d'azote protéique | quantité d'azote ammoniacal fixée par les bactéries (synthèse microbienne) | fermentescibilité des sources protéiques |
| --- | --- | --- | --- |
| nigéricine [reference compound] | effets négatifs | effet inhibiteur | diminue notablement |
| COC1CC(CC(O)CCC(C)C=C(C)C(=O)O)OC2(OC(C)(C3CCC(C)(C4OC(C5OC(O)(CO)C(C)CC5C)CC4C)O3)CC2C)C1C (stereo not shown) [abiérixine] |  |  | diminue notablement |
